This is a selection; strong and weak results do not stand in their true shares. Calls of active or inactive are those of the source. No stated cut-off is given here; in the data, active means activity change below about -65%; inconclusive means mostly about -30% to -63%; inactive means weaker than that.
molecular target: Homeobox protein SIX1 (Homo sapiens) + Protein phosphatase EYA2 (Homo sapiens) (UniProt Q15475+O00167); assay: qHTS Assay for Inhibitors of the Six1/Eya2 Interaction; details: AlphaScreen GST-Six1/His-Eya2 binding, biochemical; active compounds read low
Description: Its expression is low or undetectable in normal adult breast tissue but the gene is over-expressed in 50% of primary breast tumors and 90% of metastatic lesions. […] Similar to Six1, Eya2 is also not expressed in most normal adult tissues, but is reexpressed in cancers. The Six1-Eya interaction is essential for proliferation during embryonic development, and both Six1 and Eya2 have been independently implicated in the same types of cancer. Because Six1 and Eya2 are embryonic genes with little expression in adult tissues, inhibitors of their expression/activity are likely to have limited side effects. Our goal is to identify inhibitors of the Six1/Eya interaction for potential cancer therapy. To this end, we have developed a homogenous AlphaScreen assay targeting the Six1/Eya interaction. We performed a large scale HTS of the Molecular Libraries Small Molecule Repository (MLSMR) to identify inhibitors of the Six1/Eya interaction as potential anti-cancer therapeutics. Compounds identified can also be used as chemical probes to better understand the biological functions of Six1 and Eya. NIH Chemical Genomics Center [NCGC] NIH Molecular Libraries Probe Centers Network [MLPCN] MLPCN Grant: DA033147 Assay Submitter (PI): Rui Zhao, University of Colorado Denver
The first step of the 5 uL AlphaScreen assay is to dispense assay buffer (50 mM Tris, pH 8.0, 300 mM NaCl, 0.05% BSA, 0.02% Tween 20, 1 mM TCEP) into a Greiner 1536 white solid bottom microtiter plate (789175-F). Five microliters is added to Column 1, 4 uL is added to Column 2 and 3 uL is added to Columns 3 through 48. A 5X protein solution (250 nM GST-Six1 protein + 500 nM His-tagged Eya2 protein) is mixed and 1 uL is dispensed to Columns 3-48. Using a 1536 pintool, 23 nL of compound is transferred to the assay plate. A solution of 5X AlphaScreen beads is mixed (50 ug/mL Glutathione linked donor beads + Nickel chelated acceptor beads) and 1 uL is dispensed to Columns 2-48. The assay plate is incubated for one hour, with a lid, at 37 deg C in the dark. The plate is read using a Perkin Elmer Envision using an AlphaScreen protocol.
On the % scale 0 is the no-effect control and ±100 the full control effect.

Sequences of proteins named here, by UniProt entry; tags and fusion partners are left off.
UniProt Q15475, whole entry: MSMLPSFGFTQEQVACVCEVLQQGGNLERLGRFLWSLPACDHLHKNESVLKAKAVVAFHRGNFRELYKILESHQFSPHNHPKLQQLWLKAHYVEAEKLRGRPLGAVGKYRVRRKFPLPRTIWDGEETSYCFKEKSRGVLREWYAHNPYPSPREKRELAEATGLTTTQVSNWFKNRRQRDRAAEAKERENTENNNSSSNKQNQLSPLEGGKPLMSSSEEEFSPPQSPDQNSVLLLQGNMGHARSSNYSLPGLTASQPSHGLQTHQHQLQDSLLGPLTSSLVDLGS

Row | SMILES | activity change
1 | Cc1ccccc1NC1(C#N)CCN(Cc2ccccc2)CC1 | inactive: -4.03%
2 | COc1ccc(C(c2nnnn2C2CCCCC2)N2CCC(n3c(=O)[nH]c4ccccc43)CC2)cc1 (centres undefined) | inactive: 0.2%
3 | CCN1CCC(Nc2cccc(F)c2)CC1 | inactive: 2.26%
4 | CC(C)(C)n1nnnc1C(c1ccnc2ccccc12)N1CCC(n2c(=O)[nH]c3ccccc32)CC1 (centres undefined) | inactive: 2.53%
5 | O=C(NCC1(N2CCCCC2)CCCCC1)c1ccco1 | inactive: -2.3%
6 | CN(C)c1ccc(C(=O)NCC2(N3CCCCC3)CCCCC2)cc1 | inactive: 0.891%
7 | Cn1c(=O)[nH]cc(N(CCCl)CCCl)c1=O | inactive: 3.83%
8 | COc1cc(OC)cc(C(=O)NCC2(N3CCCCC3)CCCCC2)c1 | inactive: -9.84%
9 | O=c1[nH]c2ccccc2n1C1CCN(C(c2ccnc3ccccc23)c2nnnn2C2CCCCC2)CC1 (centres undefined) | inactive: -15.7%
10 | COc1cccc(C(c2nnnn2C2CCCCC2)N2CCC(n3c(=O)[nH]c4ccccc43)CC2)c1OC (centres undefined) | inactive: -15.6%
11 | CC(=O)N(c1ccccc1)C1CCNCC1 | inactive: -0.935%
12 | CCC(c1nnnn1C1CCCCC1)N1CCC(n2c(=O)[nH]c3ccccc32)CC1 (centres undefined) | inactive: 11.8%
13 | Cc1ccc(NC2(C#N)CCN(Cc3ccccc3)CC2)cc1 | inactive: 12.3%
14 | Cc1ccc(C(=O)NCC2(N3CCCCC3)CCCCC2)o1 | inactive: 1.44%
15 | Fc1ccccc1NC1CCN(Cc2ccccc2)CC1 | inactive: 0%
16 | CCC(CO)(C(=O)OC1CN2CCC1CC2)c1ccccc1 (centres undefined) | inactive: 7.78%
17 | COc1cccc(C(=O)N(c2cc(C)cc(C)c2)C2CCN(C(=O)OC(C)(C)C)CC2)c1 | inactive: -6.94%
18 | COc1cccc(C(c2nnnn2C2CCCC2)N2CCC(n3c(=O)[nH]c4ccccc43)CC2)c1OC (centres undefined) | inactive: -13%
19 | COc1cc(OC)cc(C(=O)NCC2(N3CCOCC3)CCCCC2)c1 | inactive: -0.757%
20 | CN1CCC(Nc2ccc(Cl)cc2)CC1 | inactive: 2.94%

Row | SMILES | activity change
21 | CCOc1ncccc1C(=O)NCC1(N2CCOCC2)CCCCC1 | inactive: -4.06%
22 | CN1CCC(Nc2ccc(F)c(Cl)c2)CC1 | inactive: 0%
23 | O=c1[nH]c2ccccc2n1C1CCN(C(c2cc3ccccc3o2)c2nnnn2C2CCCC2)CC1 (centres undefined) | inactive: -20.5%
24 | CCCOc1ccc(C(=O)NCC2(N(C)C)CCCCC2)cc1 | inactive: 0%
25 | CC(C)(C)OC(=O)N1CCC(Nc2ccccc2)CC1 | inactive: -1.5%
26 | NN(c1ccccc1)C1CCN(CCc2ccccc2)CC1 | inactive: -18.9%
27 | O=C(O)C1(Nc2ccccc2)CCN(Cc2ccccc2)CC1 | inactive: 0.174%
28 | N/C(=N\O)c1c(N)no[n+]1[O-] | inactive: -3.69%
29 | CCOC(=O)N1CCC(Nc2ccc(C)cc2)CC1 | inactive: -9.18%
30 | COc1cccc(C(c2nnnn2C(C)(C)C)N2CCC(n3c(=O)[nH]c4ccccc43)CC2)c1OC (centres undefined) | inactive: -2.29%
31 | CCCCn1nnnc1C(c1cccc(OC)c1OC)N1CCC(n2c(=O)[nH]c3ccccc32)CC1 (centres undefined) | inactive: -15.6%
32 | CCc1cc(C(=O)NCC2(N3CCCCC3)CCCCC2)sc1C | inactive: -2.66%
33 | O=C(OC1CN2CCC1CC2)C1c2ccccc2C=Cc2ccccc21 (centres undefined) | inactive: -4.58%
34 | O=C(O)c1cccc(Nc2c([N+](=O)[O-])cc([N+](=O)[O-])cc2[N+](=O)[O-])c1 | inactive: 0.558%
35 | O=c1[nH]c2ccccc2n1C1CCN(C(c2cccs2)c2nnnn2C2CCCC2)CC1 (centres undefined) | inactive: -9.88%
36 | O=C(NCC1(N2CCOCC2)CCCCC1)c1cc(Br)ccc1Cl | inactive: 15.7%
37 | CCCCn1nnnc1C(c1ccccc1)N1CCC(n2c(=O)[nH]c3ccccc32)CC1 (centres undefined) | inactive: -8.65%
38 | COc1cc(C(=O)NCC2(N3CCOCC3)CCCCC2)cc(OC)c1C | inactive: -2.67%
39 | COc1ccc(C(=O)NCC2(N3CCOCC3)CCCCC2)cc1OC | inactive: 6.61%
40 | O=c1[nH]c2ccccc2n1C1CCN(C(c2ccnc3ccccc23)c2nnnn2C2CCCC2)CC1 (centres undefined) | inactive: -10.2%

Row | SMILES | activity change
41 | O=c1[nH]c2ccccc2n1C1CCN(C(c2cccs2)c2nnnn2C2CCCCC2)CC1 (centres undefined) | inactive: -2.88%
42 | c1ccc(CN2CCC(Nc3ccccc3)CC2)cc1 | inactive: -3.82%
43 | O=c1[nH]c2ccccc2n1C1CCN(C(c2ccccc2)c2nnnn2C2CCCC2)CC1 (centres undefined) | inactive: -3.79%
44 | CCCN1CCC(Nc2cc(OC)cc(OC)c2)CC1 | inactive: -2.64%
45 | Cc1cc(N(CCCl)CCCl)ccc1C=O | inactive: 0.444%
46 | CN(C)C1(CNC(=O)c2cccc(C#N)c2)CCCCC1 | inactive: 4.61%
47 | CC(C)(C)n1nnnc1C(c1cccc2ccccc12)N1CCC(n2c(=O)[nH]c3ccccc32)CC1 (centres undefined) | inactive: -12.2%
48 | CC(C)(C)OC(=O)N1CCC(N(C(=O)c2ccccc2)c2ccc(Cl)cc2)CC1 | inactive: -7.31%
49 | N#Cc1ccc(C(=O)NCC2(N3CCCCC3)CCCCC2)cc1 | inactive: -14%
50 | CCOC(=O)C(CC)C1=NC(C)(C)Cc2ccccc21.O=[N+]([O-])c1cc([N+](=O)[O-])c(O)c([N+](=O)[O-])c1 (centres undefined) | inactive: -3.98%
51 | O=C(NCC1(N2CCCCC2)CCCCC1)c1cccc(C(F)(F)F)c1 | inactive: 4.5%
52 | O=[N+]([O-])c1cc([N+](=O)[O-])c(NCC2CCS(=O)(=O)C2)c([N+](=O)[O-])c1 (centres undefined) | inactive: -17.8%
53 | COc1ccc(NC2CCN(C(=O)OC(C)(C)C)CC2)cc1 | inactive: -17%
54 | CC(C)c1ccc(C(=O)NCC2(N3CCOCC3)CCCCC2)cc1 | inactive: 5.15%
55 | CN1CCN(CCOC(=O)C(O)(c2ccccc2)c2ccccc2)CC1 | inactive: 2.94%
56 | CCCCn1nnnc1C(c1cccc2ccccc12)N1CCC(n2c(=O)[nH]c3ccccc32)CC1 (centres undefined) | inactive: -12.9%
57 | O=C(NCC1(N2CCOCC2)CCCCC1)c1cc(=O)[nH]c2ccccc12 | inactive: 12.5%
58 | COc1cc(C(=O)NCC2(N3CCCCC3)CCCCC2)ccc1OC(F)F | inactive: -0.688%
59 | CC(C)(C)n1nnnc1C(c1ccccc1OC(F)(F)F)N1CCC(n2c(=O)[nH]c3ccccc32)CC1 (centres undefined) | inactive: -0.865%

— PubChem BioAssay AID651725 (National Center for Advancing Translational Sciences (NCATS), 2012)
